{"source": "patent EP2149374A1", "about": "(WORLD-TRADE IMPORT-EXPORT, WTIE, A.G., priority 2007, dated 2008)", "origin": "cited, not measured here", "conditions": "after administration; cited from earlier work"}
{"smiles": "O=C(O)c1cn(C2CC2)c2cc(N3CCNCC3)c(F)cc2c1=O", "note": "[Ciprofloxacin]", "values": [{"measurement": "time to maximum haematic concentrations", "result": "about one"}]}
